Each structure is given as a SMILES string. pKi: −log10 of the molar value.

Chains of the proteins cited; added tags and fusions are not shown.
UniProt P35462, whole entry: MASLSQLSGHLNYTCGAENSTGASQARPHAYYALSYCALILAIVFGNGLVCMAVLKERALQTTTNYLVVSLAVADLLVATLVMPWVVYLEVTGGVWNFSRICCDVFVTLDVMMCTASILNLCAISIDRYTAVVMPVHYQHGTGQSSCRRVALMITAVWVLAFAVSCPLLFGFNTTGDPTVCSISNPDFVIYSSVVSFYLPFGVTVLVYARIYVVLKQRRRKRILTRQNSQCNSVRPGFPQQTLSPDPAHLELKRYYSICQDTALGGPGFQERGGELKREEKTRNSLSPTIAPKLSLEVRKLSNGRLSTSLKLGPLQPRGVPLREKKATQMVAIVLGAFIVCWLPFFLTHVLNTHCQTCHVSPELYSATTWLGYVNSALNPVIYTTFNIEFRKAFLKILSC

By pKi is commonly meant the Ki on a negative log10 scale, so that one unit is a factor of ten.

For this assay, the target named is T1, human dopamine receptor subtype hD3 (Homo sapiens, UniProt P35462).
T1 construct: expressed in transfected cells; host or cells: CHO
Put plainly: Receptor binding assay, [3H]spiperone competition, CHO cell membranes. The note with it: means of 2-8 individual experiments each done as triplicate. How it is done:
Receptor binding data were determined when performing competition binding assays with membrane preparations of cloned cells (stably transfected Chinese Hamster Ovary cells (CHO)) expressing the human receptors and the following radioligands: [^3H]spiperone at the human dopamine receptor subtypes hD2long, hD2short, D3, and hD4.4. […].
Selectivity ratios were calculated by division of the Ki values of the various compounds at the respective receptors through the Ki values at the 5HT1a receptor.

Regarding `CCCN(CCC)C1CCc2cccc(O)c2C1` (stereo not drawn) [R-(+)-8-OH-DPAT, reference compound], the pKi is 7.37.

For the origin of these results see patent US8586603B2, “Aminotetraline derivatives” (priority 2009, dated 2013).
